Ends that are not written are not given here.
Target: human TLR 1 and 2 (Homo sapiens, UniProt O60603+Q15399)
Assay: NF-κB SEAP reporter assay in HEK293 cells expressing TLR 1 and 2
Details: TLR1/2-expressing HEK293 cells; 0, 0.01, 0.1, 1.0 μg; 5 hours exposure; FIG. 3

Sequences of proteins named here, by UniProt entry; tags and fusion partners are left off. Residues count along the entry.
UniProt O60603, 21-784: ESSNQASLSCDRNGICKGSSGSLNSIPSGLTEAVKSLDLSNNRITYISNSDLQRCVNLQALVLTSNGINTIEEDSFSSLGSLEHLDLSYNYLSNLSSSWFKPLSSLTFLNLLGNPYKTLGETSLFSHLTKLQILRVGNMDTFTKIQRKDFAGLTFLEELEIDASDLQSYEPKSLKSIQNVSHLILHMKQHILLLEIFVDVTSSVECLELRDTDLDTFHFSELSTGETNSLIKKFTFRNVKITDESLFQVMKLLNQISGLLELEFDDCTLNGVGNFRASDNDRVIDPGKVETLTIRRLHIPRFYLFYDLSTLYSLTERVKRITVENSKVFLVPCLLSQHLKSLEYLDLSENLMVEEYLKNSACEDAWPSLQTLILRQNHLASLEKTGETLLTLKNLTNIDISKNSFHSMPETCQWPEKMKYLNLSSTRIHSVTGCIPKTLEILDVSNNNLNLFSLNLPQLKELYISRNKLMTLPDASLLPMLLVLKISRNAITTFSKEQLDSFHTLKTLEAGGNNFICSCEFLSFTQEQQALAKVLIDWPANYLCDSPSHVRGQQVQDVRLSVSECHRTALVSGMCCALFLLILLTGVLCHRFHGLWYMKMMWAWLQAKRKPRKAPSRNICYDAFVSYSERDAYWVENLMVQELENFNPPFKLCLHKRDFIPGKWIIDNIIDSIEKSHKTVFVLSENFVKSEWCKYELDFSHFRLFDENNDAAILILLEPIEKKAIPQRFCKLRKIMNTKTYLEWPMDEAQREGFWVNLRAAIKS
UniProt Q15399, 25-786: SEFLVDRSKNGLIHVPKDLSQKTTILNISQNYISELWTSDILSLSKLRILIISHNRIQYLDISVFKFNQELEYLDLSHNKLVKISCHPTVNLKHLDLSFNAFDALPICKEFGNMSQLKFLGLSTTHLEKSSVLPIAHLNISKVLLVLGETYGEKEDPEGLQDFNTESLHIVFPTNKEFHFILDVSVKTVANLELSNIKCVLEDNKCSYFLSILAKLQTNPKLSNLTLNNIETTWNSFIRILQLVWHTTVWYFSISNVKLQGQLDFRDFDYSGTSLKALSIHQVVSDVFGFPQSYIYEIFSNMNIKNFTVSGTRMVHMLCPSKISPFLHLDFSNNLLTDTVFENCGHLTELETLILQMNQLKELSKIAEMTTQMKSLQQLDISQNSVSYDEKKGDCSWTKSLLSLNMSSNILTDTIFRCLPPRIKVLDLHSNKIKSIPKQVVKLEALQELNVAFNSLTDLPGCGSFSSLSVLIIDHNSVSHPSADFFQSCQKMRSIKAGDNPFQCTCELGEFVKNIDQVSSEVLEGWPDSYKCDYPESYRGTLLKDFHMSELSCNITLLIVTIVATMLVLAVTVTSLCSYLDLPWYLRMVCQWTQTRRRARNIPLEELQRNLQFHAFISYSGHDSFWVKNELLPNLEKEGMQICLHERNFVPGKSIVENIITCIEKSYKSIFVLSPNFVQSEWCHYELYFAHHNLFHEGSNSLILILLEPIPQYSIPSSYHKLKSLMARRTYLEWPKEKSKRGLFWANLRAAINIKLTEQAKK

Pam3Cys-GGEKAAEAPAAEAP [Lip peptide MC58]
NF-κB activation (relative 650 nm optic density, SEAP): acted as a TLR1 and TLR2 agonist in a concentration dependent manner

— patent US20110171259A1 (priority 2008, published 2011)
